Experimental data from patent publication US20260070899A1, “N-(2-(4-CYANOTHIAZOLIDIN-3-YL)-2-OXOETHYL)-QUINOLINE-4-CARBOXAMIDES” (AstraZeneca AB, priority 2022, published 2026).

Biological target: T1, human Fibroblast activation protein alpha (hFAP) (Homo sapiens, UniProt Q12884)
T1 construct: Proteros, 38-760 (PR-0071); purchased Proteros PR-0071
T1 sequence (Q12884 38-760): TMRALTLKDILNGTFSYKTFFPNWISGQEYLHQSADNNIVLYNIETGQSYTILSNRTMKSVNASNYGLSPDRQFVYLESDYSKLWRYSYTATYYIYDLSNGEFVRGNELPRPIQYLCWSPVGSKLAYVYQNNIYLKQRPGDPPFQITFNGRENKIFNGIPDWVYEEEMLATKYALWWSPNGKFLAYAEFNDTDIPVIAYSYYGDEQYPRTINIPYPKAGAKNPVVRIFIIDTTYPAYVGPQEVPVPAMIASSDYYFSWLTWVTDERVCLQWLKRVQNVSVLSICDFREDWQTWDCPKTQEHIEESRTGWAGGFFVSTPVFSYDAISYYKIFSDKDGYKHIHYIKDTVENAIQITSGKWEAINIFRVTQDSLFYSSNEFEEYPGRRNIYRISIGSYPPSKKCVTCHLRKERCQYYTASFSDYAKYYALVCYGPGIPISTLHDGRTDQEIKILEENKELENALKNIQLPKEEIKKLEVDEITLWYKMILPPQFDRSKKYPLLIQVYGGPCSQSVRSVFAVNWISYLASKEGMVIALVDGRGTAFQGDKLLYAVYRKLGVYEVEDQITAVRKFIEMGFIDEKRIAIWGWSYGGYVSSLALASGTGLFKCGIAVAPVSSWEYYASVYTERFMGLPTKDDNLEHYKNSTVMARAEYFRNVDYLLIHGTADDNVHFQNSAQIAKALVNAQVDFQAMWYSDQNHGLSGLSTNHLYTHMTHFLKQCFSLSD
Assay: hFAP inhibition assay (tight binders)
Format: biochemical
Settings: Ala-Pro-AMC 20 μM, n = 1 or geometric mean (n = 2-5)
Procedure: Data were analyzed in Genedata Screener®.

IC50 | Structure (SMILES)
0.25 nM | CC(O)c1ccc2nccc(C(=O)NCC(=O)N3CSC[C@H]3C#N)c2c1 (mixture of isomers) [Example 25, N-(2-((R)-4-Cyanothiazolidin-3-yl)-2-oxoethyl)-6-((RS)-1-hydroxyethyl)quinoline-4-carboxamide]
0.084 nM | N#C[C@@H]1CSCN1C(=O)CNC(=O)c1ccnc2ccc(CC3CCOC3)cc12 (mixture of isomers) [Example 65, N-(2-((R)-4-Cyanothiazolidin-3-yl)-2-oxoethyl)-6-(((RS)-tetrahydrofuran-3-yl)methyl)quinoline-4-carboxamide]
0.042 nM | CCCOc1ccc2nccc(C(=O)NCC(=O)N3CSC[C@H]3C#N)c2c1 [Example 73, (R)—N-(2-(4-Cyanothiazolidin-3-yl)-2-oxoethyl)-6-propoxyquinoline-4-carboxamide]
0.25 nM | CC1(C)CC(c2ccc3nccc(C(=O)NCC(=O)N4CSC[C@H]4C#N)c3c2)CO1 (mixture of isomers) [Example 61, N-(2-((R)-4-Cyanothiazolidin-3-yl)-2-oxoethyl)-6-(5,5-dimethyltetrahydrofuran-3-yl)quinoline-4-carboxamide]
0.026 nM | COCCCOc1ccc(-c2ccc3nccc(C(=O)NCC(=O)N4CSC[C@H]4C#N)c3c2)cc1 [Example 72, (R)—N-(2-(4-Cyanothiazolidin-3-yl)-2-oxoethyl)-6-(4-(3-methoxy-propoxy)phenyl)quinoline-4-carboxamide]
0.093 nM | C#CC1(c2ccc3nccc(C(=O)NCC(=O)N4CSC[C@H]4C#N)c3c2)CCOCC1 [Example 57, (R)—N-(2-(4-Cyanothiazolidin-3-yl)-2-oxoethyl)-6-(4-ethynyl-tetrahydro-2H-pyran-4-yl)quinoline-4-carboxamide]
0.53 nM | COCCOCc1ccc2nccc(C(=O)NCC(=O)N3CSC[C@H]3C#N)c2c1 [Example 31, (R)—N-(2-(4-Cyanothiazolidin-3-yl)-2-oxoethyl)-6-((2-methoxyethoxy)-methyl)quinoline-4-carboxamide]
0.085 nM | N#CCOc1ccc2nccc(C(=O)NCC(=O)N3CSC[C@H]3C#N)c2c1 [Example 10, (R)-6-(Cyanomethoxy)-N-(2-(4-cyanothiazolidin-3-yl)-2-oxoethyl)quinoline-4-carboxamide]
0.45 nM | COC(C)c1ccc2nccc(C(=O)NCC(=O)N3CSC[C@H]3C#N)c2c1 (mixture of isomers) [Example 26, N-(2-((R)-4-Cyanothiazolidin-3-yl)-2-oxoethyl)-6-((RS)-1-methoxyethyl)quinoline-4-carboxamide]
0.14 nM | COC1(c2ccc3nccc(C(=O)NCC(=O)N4CSC[C@H]4C#N)c3c2)CCOCC1 [Example 66, (R)—N-(2-(4-Cyanothiazolidin-3-yl)-2-oxoethyl)-6-(4-methoxy-tetrahydro-2H-pyran-4-yl)quinoline-4-carboxamide]
0.097 nM | COCCCc1ccc2nccc(C(=O)NCC(=O)N3CSC[C@H]3C#N)c2c1 [Example 81, (R)—N-(2-(4-cyanothiazolidin-3-yl)-2-oxoethyl)-6-(3-methoxypropyl)quinoline-4-carboxamide]
0.085 nM | N#C[C@@H]1CSCN1C(=O)CNC(=O)c1ccnc2ccc(OC(CF)CF)cc12 [Example 7, (R)—N-(2-(4-Cyanothiazolidin-3-yl)-2-oxoethyl)-6-((1,3-difluoropropan-2-yl)oxy)quinoline-4-carboxamide]
0.063 nM | COCCOc1ccc2nccc(C(=O)NCC(=O)N3CSC[C@H]3C#N)c2c1 [Example 4, (R)—N-(2-(4-Cyanothiazolidin-3-yl)-2-oxoethyl)-6-(2-methoxyethoxy)quinoline-4-carboxamide]
0.079 nM | Cc1conc1Cc1ccc2nccc(C(=O)NCC(=O)N3CSC[C@H]3C#N)c2c1 [Example 38, (R)—N-(2-(4-Cyanothiazolidin-3-yl)-2-oxoethyl)-6-((4-methylisoxazol-3-yl)methyl)quinoline-4-carboxamide]
0.079 nM | N#C[C@@H]1CSCN1C(=O)CNC(=O)c1ccnc2ccc(CC3CCOCC3)cc12 [Example 56, (R)—N-(2-(4-Cyanothiazolidin-3-yl)-2-oxoethyl)-6-((tetrahydro-2H-pyran-4-yl)methyl)quinoline-4-carboxamide]
0.12 nM | Cc1cc(C2(c3ccc4nccc(C(=O)NCC(=O)N5CSC[C@H]5C#N)c4c3)CC2)no1 [Example 45, (R)—N-(2-(4-Cyanothiazolidin-3-yl)-2-oxoethyl)-6-(1-(5-methylisoxazol-3-yl)cyclopropyl)quinoline-4-carboxamide]
0.12 nM | N#C[C@@H]1CSCN1C(=O)CNC(=O)c1ccnc2ccc(C3(c4ncccc4F)CC3)cc12 [Example 44, (R)—N-(2-(4-Cyanothiazolidin-3-yl)-2-oxoethyl)-6-(1-(3-fluoropyridin-2-yl)cyclopropyl)quinoline-4-carboxamide]
0.039 nM | N#C[C@@H]1CSCN1C(=O)CNC(=O)c1ccnc2ccc(C3(C#N)CCOCC3)cc12 [Example 59, (R)-6-(4-Cyanotetrahydro-2H-pyran-4-yl)-N-(2-(4-cyanothiazolidin-3-yl)-2-oxoethyl)quinoline-4-carboxamide]
0.085 nM | CC(F)(F)Cc1ccc2nccc(C(=O)NCC(=O)N3CSC[C@H]3C#N)c2c1 [Example 53, (R)—N-(2-(4-Cyanothiazolidin-3-yl)-2-oxoethyl)-6-(2,2-difluoropropyl)quinoline-4-carboxamide]
0.064 nM | Cc1cc(C2(c3ccc4nccc(C(=O)NCC(=O)N5CSC[C@H]5C#N)c4c3)CC2)on1 [Example 50, (R)—N-(2-(4-Cyanothiazolidin-3-yl)-2-oxoethyl)-6-(1-(3-methylisoxazol-5-yl)cyclopropyl)quinoline-4-carboxamide]
0.067 nM | CO[C@H]1CC[C@@H](c2ccc3nccc(C(=O)NCC(=O)N4CSC[C@H]4C#N)c3c2)CC1 (single isomer, unassigned) [Example 79, N-(2-((R)-4-Cyanothiazolidin-3-yl)-2-oxoethyl)-6-((1r,4R*)-4-methoxycyclohexyl)quinoline-4-carboxamide]
0.07 nM | N#C[C@@H]1CSCN1C(=O)CNC(=O)c1ccnc2ccc(OCCF)cc12 [Example 74, (R)—N-(2-(4-Cyanothiazolidin-3-yl)-2-oxoethyl)-6-(2-fluoroethoxy)-quinoline-4-carboxamide]
0.096 nM | N#C[C@@H]1CSCN1C(=O)CNC(=O)c1ccnc2ccc(OCC(F)F)cc12 [Example 2, (R)—N-(2-(4-Cyanothiazolidin-3-yl)-2-oxoethyl)-6-(2,2-difluoroethoxy)quinoline-4-carboxamide]
0.049 nM | CO[C@H]1C[C@](F)(c2ccc3nccc(C(=O)NCC(=O)N4CSC[C@H]4C#N)c3c2)C1 (single isomer, unassigned) [Example 63, N-(2-((R)-4-Cyanothiazolidin-3-yl)-2-oxoethyl)-6-((1r,3R*)-1-fluoro-3-methoxycyclobutyl)quinoline-4-carboxamide]
0.18 nM | N#C[C@@H]1CSCN1C(=O)CNC(=O)c1ccnc2ccc(C3(c4ccnc(C(F)(F)F)c4)CC3)cc12 [Example 13, (R)—N-(2-(4-Cyanothiazolidin-3-yl)-2-oxoethyl)-6-(1-(2-(trifluoromethyl)pyridin-4-yl)cyclopropyl)quinoline-4-carboxamide]
0.15 nM | CC(C)(F)COc1ccc2nccc(C(=O)NCC(=O)N3CSC[C@H]3C#N)c2c1 [Example 3, (R)—N-(2-(4-Cyanothiazolidin-3-yl)-2-oxoethyl)-6-(2-fluoro-2-methylpropoxy)quinoline-4-carboxamide]
